# Article PMC7030922
# The other results are listed elsewhere or left out.
# Target: Voltage-dependent L-type calcium channel subunit beta-1 (UniProt Q8R3Z5)
# Experiment: cross-link between two proteins; cross-linking mass spectrometry
substance,measurement,value
"Voltage-dependent L-type calcium channel subunit beta-4, Q8R0S4",listed as a hit,yes
